# Measurements as given in patent US20170107579A1, “E1 ENZYME MUTANTS AND USES THEREOF” (Millennium Pharmaceuticals, Inc., priority 2011, published 2017).
# Protein sequences, listed by entry. Tags and fused reporters are not part of them.
# UniProt Q8TBC4, whole entry G201V: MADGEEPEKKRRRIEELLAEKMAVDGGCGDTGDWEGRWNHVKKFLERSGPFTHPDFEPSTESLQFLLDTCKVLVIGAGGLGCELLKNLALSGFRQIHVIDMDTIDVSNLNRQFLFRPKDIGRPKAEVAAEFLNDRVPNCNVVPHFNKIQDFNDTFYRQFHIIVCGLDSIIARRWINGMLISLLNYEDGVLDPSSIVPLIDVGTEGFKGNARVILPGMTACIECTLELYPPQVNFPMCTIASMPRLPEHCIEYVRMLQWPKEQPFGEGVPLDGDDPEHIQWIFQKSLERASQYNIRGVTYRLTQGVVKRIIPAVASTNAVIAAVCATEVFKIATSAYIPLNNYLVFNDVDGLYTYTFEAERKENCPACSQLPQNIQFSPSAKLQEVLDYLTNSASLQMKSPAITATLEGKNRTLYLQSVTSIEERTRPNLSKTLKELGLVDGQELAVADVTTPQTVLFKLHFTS
# UniProt Q8TBC4, whole entry N209K: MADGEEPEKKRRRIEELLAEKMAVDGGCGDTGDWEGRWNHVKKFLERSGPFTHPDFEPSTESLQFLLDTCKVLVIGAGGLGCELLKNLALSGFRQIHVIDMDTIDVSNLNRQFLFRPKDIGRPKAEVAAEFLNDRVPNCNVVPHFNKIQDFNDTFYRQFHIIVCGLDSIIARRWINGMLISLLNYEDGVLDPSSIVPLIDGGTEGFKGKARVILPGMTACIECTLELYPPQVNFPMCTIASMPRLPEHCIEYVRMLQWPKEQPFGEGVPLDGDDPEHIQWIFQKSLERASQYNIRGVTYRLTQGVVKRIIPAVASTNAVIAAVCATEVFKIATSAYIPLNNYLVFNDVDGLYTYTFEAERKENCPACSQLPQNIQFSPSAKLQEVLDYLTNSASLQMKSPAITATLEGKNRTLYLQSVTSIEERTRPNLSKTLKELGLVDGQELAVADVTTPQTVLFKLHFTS
# UniProt Q8TBC4, whole entry A171T: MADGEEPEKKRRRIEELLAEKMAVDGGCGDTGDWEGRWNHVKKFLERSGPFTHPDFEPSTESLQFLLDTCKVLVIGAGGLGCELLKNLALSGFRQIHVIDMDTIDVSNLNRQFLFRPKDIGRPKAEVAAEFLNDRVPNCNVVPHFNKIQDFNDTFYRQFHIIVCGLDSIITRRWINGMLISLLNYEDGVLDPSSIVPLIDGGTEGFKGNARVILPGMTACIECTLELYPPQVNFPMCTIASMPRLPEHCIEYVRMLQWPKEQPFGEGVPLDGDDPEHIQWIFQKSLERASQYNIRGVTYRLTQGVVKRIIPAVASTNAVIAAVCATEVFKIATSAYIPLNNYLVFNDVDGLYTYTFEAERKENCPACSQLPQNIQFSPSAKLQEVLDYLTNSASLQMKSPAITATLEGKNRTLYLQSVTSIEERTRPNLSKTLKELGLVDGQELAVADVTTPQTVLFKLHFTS
# UniProt Q8TBC4, whole entry A171D: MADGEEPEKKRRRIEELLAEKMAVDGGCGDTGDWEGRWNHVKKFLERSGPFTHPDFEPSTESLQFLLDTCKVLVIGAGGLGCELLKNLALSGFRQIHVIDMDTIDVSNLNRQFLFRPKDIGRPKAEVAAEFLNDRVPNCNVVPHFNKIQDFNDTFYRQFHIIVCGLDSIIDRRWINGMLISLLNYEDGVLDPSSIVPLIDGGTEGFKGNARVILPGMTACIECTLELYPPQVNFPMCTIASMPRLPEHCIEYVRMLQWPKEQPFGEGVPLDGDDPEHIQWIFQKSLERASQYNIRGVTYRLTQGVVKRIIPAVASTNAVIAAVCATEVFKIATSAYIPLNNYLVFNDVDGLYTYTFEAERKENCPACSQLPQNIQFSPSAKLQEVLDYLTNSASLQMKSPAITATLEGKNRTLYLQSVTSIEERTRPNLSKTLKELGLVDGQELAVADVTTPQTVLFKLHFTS
# Experiments:
# Format in all cases: biochemical
# A573T UBA6 = target: T1, A573T UBA6 (Homo sapiens, UniProt A0AVT1, A573T); test: UBA6 pyrophosphate exchange assay; conditions: A573T UBA6 5 nM, 1 mM ATP, 4 μM ubiquitin
# T1 construct: His6 (N); made in house; host or cells: Sf9 insect cells (baculovirus, single infection)
# T1 sequence (A0AVT1 1-1052 A573T): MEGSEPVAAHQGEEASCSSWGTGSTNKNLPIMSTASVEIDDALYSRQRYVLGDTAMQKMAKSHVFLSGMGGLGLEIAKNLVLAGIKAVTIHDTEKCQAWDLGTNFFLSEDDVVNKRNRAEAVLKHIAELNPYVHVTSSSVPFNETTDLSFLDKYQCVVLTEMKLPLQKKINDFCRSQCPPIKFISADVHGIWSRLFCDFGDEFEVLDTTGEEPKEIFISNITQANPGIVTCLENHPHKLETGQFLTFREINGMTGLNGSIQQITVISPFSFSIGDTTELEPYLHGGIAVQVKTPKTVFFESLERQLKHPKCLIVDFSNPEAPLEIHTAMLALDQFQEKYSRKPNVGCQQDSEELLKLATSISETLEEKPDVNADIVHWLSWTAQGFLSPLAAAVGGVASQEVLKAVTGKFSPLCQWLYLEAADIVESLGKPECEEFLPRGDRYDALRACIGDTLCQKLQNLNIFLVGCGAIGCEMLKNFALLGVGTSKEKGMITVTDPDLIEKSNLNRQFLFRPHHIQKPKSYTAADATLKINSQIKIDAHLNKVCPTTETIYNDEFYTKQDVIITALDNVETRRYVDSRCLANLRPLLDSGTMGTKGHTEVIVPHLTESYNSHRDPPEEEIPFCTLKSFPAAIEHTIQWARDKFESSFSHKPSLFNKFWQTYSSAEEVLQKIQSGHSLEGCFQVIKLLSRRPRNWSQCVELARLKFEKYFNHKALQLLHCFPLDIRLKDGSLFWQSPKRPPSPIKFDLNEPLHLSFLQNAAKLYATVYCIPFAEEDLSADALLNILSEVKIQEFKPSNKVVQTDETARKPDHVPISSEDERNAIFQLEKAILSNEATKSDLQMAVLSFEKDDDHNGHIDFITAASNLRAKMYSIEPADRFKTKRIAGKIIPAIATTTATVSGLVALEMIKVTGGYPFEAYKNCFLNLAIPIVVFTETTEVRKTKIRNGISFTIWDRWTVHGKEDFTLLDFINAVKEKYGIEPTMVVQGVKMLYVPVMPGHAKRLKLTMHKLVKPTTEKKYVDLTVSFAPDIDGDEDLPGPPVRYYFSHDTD
# Procedure: (§1) ATP and PPi titrations were run under similar condition, except ubiquitin was fixed at 4 μM. […] ATP standard curve.
# (§2) Reactions were initiated with addition of 4 μM ubiquitin.
# wild-type UBA6 = target: T2, wild-type UBA6 (Homo sapiens, UniProt A0AVT1); test: UBA6 pyrophosphate exchange assay; conditions: wt UBA6 5 nM, 1 mM ATP, 4 μM ubiquitin, 60 minutes at 30° C.
# T2 construct: His6 (N); made in house; host or cells: Sf9 insect cells (baculovirus, single infection)
# T2 sequence (A0AVT1 1-1052): T1 sequence (A0AVT1 1-1052 A573T) with T573A
# Procedure: as §1, §2
# A573D UBA6 = target: T3, A573D UBA6 (Homo sapiens, UniProt A0AVT1, A573D); test: UBA6 pyrophosphate exchange assay; conditions: A573D UBA6 5 nM, 1 mM ATP, 4 μM ubiquitin
# T3 construct: His6 (N); made in house; host or cells: Sf9 insect cells (baculovirus, single infection)
# T3 sequence (A0AVT1 1-1052 A573D): T1 sequence (A0AVT1 1-1052 A573T) with T573D
# Procedure: as §1, §2
# G201V NAEβ mutant NAE = target: T4, G201V NAEβ mutant NAE (Homo sapiens, UniProt Q8TBC4, G201V); test: Pyrophosphate (ATP-PPi) exchange assay; conditions: G201V NAE 5 nM, 1 mM ATP
# T4 construct: His; made in house; host or cells: E. coli Rosetta (DE3), co-expression
# N209K NAEβ mutant NAE = target: T5, N209K NAEβ mutant NAE (Homo sapiens, UniProt Q8TBC4, N209K); test: Pyrophosphate (ATP-PPi) exchange assay
# T5 construct: His; made in house; host or cells: E. coli Rosetta (DE3), co-expression
# A171T NAEβ mutant NAE = target: T6, A171T NAEβ mutant NAE (Homo sapiens, UniProt Q8TBC4, A171T); test: Pyrophosphate (ATP-PPi) exchange assay
# T6 construct: His; made in house; host or cells: E. coli Rosetta (DE3), co-expression
# A171D NAEβ mutant NAE = target: T7, A171D NAEβ mutant NAE (Homo sapiens, UniProt Q8TBC4, A171D); test: Pyrophosphate (ATP-PPi) exchange assay; conditions: A171D NAE 5 nM, 1 mM ATP
# T7 construct: made in house; host or cells: Sf9 insect cells, co-infection
# wt NAE = target: T8, wt NAE (Homo sapiens, UniProt Q8TBC4); test: Pyrophosphate (ATP-PPi) exchange assay
# T8 construct: His; made in house; host or cells: E. coli Rosetta (DE3), co-expression
compound,measurement,setting,value
"Nc1ncnc2c1ncn2[C@@H]1O[C@H](COS(N)(=O)=O)[C@@H](O)[C@H]1O [Adenosine sulfamate, adenosine sulfamate]",IC50,A573T UBA6,0.027 ± 0.002 µM
same,IC50,wild-type UBA6,0.042 ± 0.002 µM
same,IC50,A573D UBA6,0.36 ± 0.02 µM
same,IC50,G201V NAEβ mutant NAE,0.22 ± 0.006 µM
same,IC50,"N209K NAEβ mutant NAE; N209K NAE 5 nM, 1 mM ATP",0.12 ± 0.013 µM
same,kinact/KI,"N209K NAEβ mutant NAE; N209K NAEβ, PPi-ATP exchange assay at 1 mM ATP, read-out: kinact/Ki (rate of inactivation)",1200 M⁻¹ s⁻¹
same,IC50,A171T NAEβ mutant NAE,0.008 ± 0.009 µM
same,kinact/KI,"A171T NAEβ mutant NAE; A171T NAEβ, PPi-ATP exchange assay at 1 mM ATP, read-out: kinact/Ki (rate of inactivation)",20900 M⁻¹ s⁻¹
same,IC50,A171D NAEβ mutant NAE,0.034 ± 0.004 µM
same,IC50,"wt NAE; wt NAE 5 nM, 1 mM ATP, 60 minutes at 37° C.",0.005 ± 0.0002 µM
same,kinact/KI,"wt NAE; wt NAEβ, PPi-ATP exchange assay at 1 mM ATP, 95% confidence limit, read-out: kinact/Ki (rate of inactivation)",25800 M⁻¹ s⁻¹

# Residue numbers refer to the chain shown, from its start.
